{"sequences": {"note": "By UniProt entry, the sequences of proteins in these tests, tags left out. Residues count along the entry.", "UniProt P08069, 741-1367 limits assumed": "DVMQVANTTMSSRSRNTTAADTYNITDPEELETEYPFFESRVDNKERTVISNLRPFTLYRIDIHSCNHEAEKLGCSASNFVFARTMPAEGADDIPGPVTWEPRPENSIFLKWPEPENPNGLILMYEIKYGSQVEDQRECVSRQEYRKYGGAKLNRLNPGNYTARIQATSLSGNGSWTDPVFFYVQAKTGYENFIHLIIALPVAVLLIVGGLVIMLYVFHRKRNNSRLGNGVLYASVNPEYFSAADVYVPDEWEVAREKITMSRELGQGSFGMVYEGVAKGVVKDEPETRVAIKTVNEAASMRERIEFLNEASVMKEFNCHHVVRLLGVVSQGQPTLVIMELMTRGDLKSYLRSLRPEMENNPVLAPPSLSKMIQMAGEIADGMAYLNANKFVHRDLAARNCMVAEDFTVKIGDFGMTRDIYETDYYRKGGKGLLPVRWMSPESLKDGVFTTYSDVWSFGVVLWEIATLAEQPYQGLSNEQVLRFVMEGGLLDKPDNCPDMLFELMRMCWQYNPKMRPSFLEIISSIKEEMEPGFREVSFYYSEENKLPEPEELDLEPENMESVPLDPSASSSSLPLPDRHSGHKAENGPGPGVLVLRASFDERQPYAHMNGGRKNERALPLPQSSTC", "UniProt P08069, 31-736 limits assumed": "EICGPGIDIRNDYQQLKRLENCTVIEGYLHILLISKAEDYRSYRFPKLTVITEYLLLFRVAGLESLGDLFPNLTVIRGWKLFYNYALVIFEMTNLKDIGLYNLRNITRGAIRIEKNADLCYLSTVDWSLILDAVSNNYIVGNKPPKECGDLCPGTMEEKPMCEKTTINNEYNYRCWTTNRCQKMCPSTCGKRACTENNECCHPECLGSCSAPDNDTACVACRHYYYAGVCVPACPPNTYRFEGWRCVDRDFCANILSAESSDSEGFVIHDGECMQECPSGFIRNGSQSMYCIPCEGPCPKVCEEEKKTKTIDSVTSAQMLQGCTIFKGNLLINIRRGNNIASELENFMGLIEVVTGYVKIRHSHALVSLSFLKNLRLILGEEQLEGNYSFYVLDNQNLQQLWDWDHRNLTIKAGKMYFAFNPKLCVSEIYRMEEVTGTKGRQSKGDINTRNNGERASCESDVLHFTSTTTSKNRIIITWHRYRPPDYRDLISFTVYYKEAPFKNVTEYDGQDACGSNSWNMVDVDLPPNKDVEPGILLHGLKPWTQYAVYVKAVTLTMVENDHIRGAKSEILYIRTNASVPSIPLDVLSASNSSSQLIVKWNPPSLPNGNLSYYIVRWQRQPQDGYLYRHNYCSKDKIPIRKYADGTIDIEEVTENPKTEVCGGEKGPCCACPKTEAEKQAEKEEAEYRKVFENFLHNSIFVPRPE"}, "source": "patent US20110039779A1", "about": "“IGF-1R BINDING PROTEINS AND ANTAGONISTS” (priority 2007, published 2011)", "key": {"HIGF-1R": {"biological_target": "T1, HIGF-1R (Homo sapiens, UniProt P08069)", "T1 construct": "HIGF-1R was purified from a cell culture of BHK cells stably transfected with IGF-1R cDNA; made in house; host or cells: BHK cells stably transfected with IGF-1R cDNA", "assay": "IGF-1R affinity, scintillation proximity assay (SPA assay), 125I-IGF1 displacement", "assay_type": "binding", "details": "read-out: HIGFIR Affinity (SPA-assay); IC50 for binding used as a measure of Kd", "experimental": "In certain cases, a scintillation proximity assay (SPA assay) was used to determine IGF-1R affinity. Briefly, anti-mouse SPA beads were mixed with an HIGF-1R antibody (24-31) and WGA-purified HIGF-1R from transfected cells. The binding buffer was 0.1 M Hepes, pH 7.8, 0.1 M NaCl, 10 mM MgCl2, 0.025% Tween-20, 0.5% BSA. To this mixture was added ^125I-IGF1 and a dilution series of IGF1 or the peptide to be determined."}, "MCF7 cells": {"biological_target": "MCF7 cells (Homo sapiens, UniProt P08069)", "assay_type": "cell-based", "details": "read-out: Cell; Table 10, antagonism in MCF7 cells", "experimental": "Additional binding and antagonism assays using candidate peptides were performed. […] Cell viability was determined by luminescence assay and IC50 was calculated using standard techniques."}, "[1]": {"assay": "stability in CD-1 mouse plasma at 37° C., LC-MS/MS", "assay_type": "in vitro ADME", "experimental": "In this study, the stability of Test Article F429 in CD-1 mouse plasma was evaluated following incubation at 37° C. for twelve sampling time points. Plasma levels of Test Article F429 were determined by LC-MS/MS, and the results were processed and interpreted (half-life).\nA 150-4 aliquot of Test Article F429 (2.0 mg/mL) was added into 2850 μL of CD-1 mouse plasma, for a final concentration of Test Article F429 at 100 μg/mL. The sample was mixed and immediately put into a 37° C. reciprocal shaking water bath (Precision, Winchester, Va.). Triplicate 75-4 aliquots were sampled at twelve sample time points (blank test article, 1, 2, 5, 10, 15, 20, 30, 60 min and 2, 4 and 24 hrs). The aliquots were immediately frozen at −80° C.\nAll mouse plasma samples were diluted two-fold with in-house blank CD-1 mouse plasma. Then, aliquots (50 pt) of mouse plasma and spiked F429 mouse plasma samples were added into 200 μl of water, then combined with 250 μL of pH 7.4, 10 mM phosphate buffer solution and mixed well. The final volume of the prepared solution was 500 μL, which was ready for solid phase extraction sample preparation.\nThe Strata X 96-well plates solid phase extraction cartridge (8E-S100-TGB, Phenomenex) was placed on a vacuum manifold with the vacuum set to 5 mm Hg for sample preparation. The plate was first conditioned with 1.0 mL of acetonitrile following the equilibration with 1.0 mL of water. Then 500 μL of samples were loaded onto the plate and later were washed twice with 0.5 mL of 5% acetonitrile in water. The receiver was replaced with a 96-deep well collection plate. The cartridge was then eluted with 80% acetonitrile in water containing 1% ammonium hydroxide twice. A 100-μL aliquot of each of the eluted samples was transferred to vials for analysis by LC-MS/MS. Quantification of the test article, F429, in mouse plasma was performed against calibration curves generated by spiking the test article into blank mouse plasma (100, 75, 50, 37.5, 25, 10, 5, and 2.5 μg/mL final concentrations).\nAn eight-point standard curve in triplicate at each concentration level was interspersed with the samples during each run. At least the two closest determinations for each concentration were used to generate the calibration curve. The acceptance criteria were that five out of eight standards must be within ±30% for the stability plasma sample analysis.\nIndividual rat plasma concentrations of Test Article F429 vs. time data, as well as mean data for each dosing group, are shown in Tables 19 and 20. The plots of the individual and mean plasma concentration of F429 versus time following the incubation of 100 μg/mL F429 are shown in FIG. 13 and FIG. 14. All samples that were below the limit of quantification were assigned a value of zero. All data are expressed as μg/mL of the F429 free drug."}, "[2]": {"assay": "toxicity study in MiaPaCa tumor-bearing nude mice", "assay_type": "in vivo", "details": "500 ug/injection (20 mg/kg) subcutaneous 4 times per week for 3 weeks; body weight; FIG. 20", "experimental": "Nude mice were inoculated with MiaPaCa cells (one million cells in matrigel) on the flank and followed until tumors reached a volume of greater than 100 mm^3. Animals were randomized and placed into 3 treatment groups: control (no injections), vehicle, ANT-429 and vehicle at 500 ug/injection (20 mg/kg). Animals were injected by the subcutaneous route 4 times per week for 3 weeks and followed for an additional 2 weeks without injections. Tumors and body weight were measured twice weekly."}, "[3]": {"details": "CD-1 mouse plasma, incubation of 100 μg/mL F429, incubation time 0 min"}, "[4]": {"details": "CD-1 mouse plasma, incubation of 100 μg/mL F429, incubation time 1 min"}, "[5]": {"details": "CD-1 mouse plasma, incubation of 100 μg/mL F429, incubation time 2 min"}, "[6]": {"details": "CD-1 mouse plasma, incubation of 100 μg/mL F429, incubation time 5 min"}, "[7]": {"details": "CD-1 mouse plasma, incubation of 100 μg/mL F429, incubation time 10 min"}, "[8]": {"details": "CD-1 mouse plasma, incubation of 100 μg/mL F429, incubation time 15 min"}, "[9]": {"details": "CD-1 mouse plasma, incubation of 100 μg/mL F429, incubation time 20 min"}, "[10]": {"details": "CD-1 mouse plasma, incubation of 100 μg/mL F429, incubation time 30 min"}, "[11]": {"details": "CD-1 mouse plasma, incubation time 0 min"}, "[12]": {"details": "CD-1 mouse plasma, incubation time 1 min"}, "[13]": {"details": "CD-1 mouse plasma, incubation time 2 min"}, "[14]": {"details": "CD-1 mouse plasma, incubation time 5 min"}, "[15]": {"details": "CD-1 mouse plasma, incubation time 10 min"}, "[16]": {"details": "CD-1 mouse plasma, incubation time 15 min"}, "[17]": {"details": "CD-1 mouse plasma, incubation time 20 min"}, "[18]": {"details": "CD-1 mouse plasma, incubation time 30 min"}, "[19]": {"details": "CD-1 mouse plasma, incubation time 60 min"}, "[20]": {"details": "CD-1 mouse plasma, incubation time 120 min"}, "[21]": {"details": "CD-1 mouse plasma, incubation time 240 min"}}, "note": "Where “and” joins values, the source holds several entries; their conditions need not be identical. Identical values can stand only once."}
{"sequence": "DFYGCLLDLSLGVPSLGWRRRCITA [Peptide F429]", "values": [{"measurement": "Kd", "setting": "HIGF-1R", "result": 0.63, "unit": "nM"}, {"measurement": "IC50", "setting": "MCF7 cells", "result": "12 to 558", "unit": "nM"}, {"measurement": "stability half-life in CD-1 mouse plasma", "setting": "[1]; 37° C., 100 μg/mL", "result": 1.22, "unit": "h"}, {"measurement": "remaining percentage", "setting": "[1]; CD-1 mouse plasma, 37° C., at 4 hours", "result": 9.65, "unit": "%"}, {"measurement": "Calculated Conc. (individual sample)", "setting": "[1]; [3]", "result": "65.5 µg/mL and 72.2 µg/mL and 76.8 µg/mL"}, {"measurement": "Mean Calculated Conc. (n = 3)", "setting": "[1]; [3]", "result": 71.5, "unit": "µg/mL"}, {"measurement": "Calculated Conc. (individual sample)", "setting": "[1]; [4]", "result": "59.3 µg/mL and 60.6 µg/mL and 49.7 µg/mL"}, {"measurement": "Mean Calculated Conc. (n = 3)", "setting": "[1]; [4]", "result": 56.5, "unit": "µg/mL"}, {"measurement": "Calculated Conc. (individual sample)", "setting": "[1]; [5]", "result": "56.6 µg/mL and 57.9 µg/mL and 66.8 µg/mL"}, {"measurement": "Mean Calculated Conc. (n = 3)", "setting": "[1]; [5]", "result": 60.4, "unit": "µg/mL"}, {"measurement": "Calculated Conc. (individual sample)", "setting": "[1]; [6]", "result": "68.6 µg/mL and 67.0 µg/mL and 59.7 µg/mL"}, {"measurement": "Mean Calculated Conc. (n = 3)", "setting": "[1]; [6]", "result": 65.1, "unit": "µg/mL"}, {"measurement": "Calculated Conc. (individual sample)", "setting": "[1]; [7]", "result": "63.0 µg/mL and 64.3 µg/mL and 61.7 µg/mL"}, {"measurement": "Mean Calculated Conc. (n = 3)", "setting": "[1]; [7]", "result": 63.0, "unit": "µg/mL"}, {"measurement": "Calculated Conc. (individual sample)", "setting": "[1]; [8]", "result": "60.4 µg/mL and 60.0 µg/mL and 61.8 µg/mL"}, {"measurement": "Mean Calculated Conc. (n = 3)", "setting": "[1]; [8]", "result": 60.7, "unit": "µg/mL"}, {"measurement": "Calculated Conc. (individual sample)", "setting": "[1]; [9]", "result": "63.9 µg/mL and 62.4 µg/mL and 56.9 µg/mL"}, {"measurement": "Mean Calculated Conc. (n = 3)", "setting": "[1]; [9]", "result": 61.1, "unit": "µg/mL"}, {"measurement": "Calculated Conc. (individual sample)", "setting": "[1]; [10]", "result": "58.0 µg/mL and 58.3 µg/mL and 57.7 µg/mL"}, {"measurement": "Mean Calculated Conc. (n = 3)", "setting": "[1]; [10]", "result": 58.0, "unit": "µg/mL"}, {"measurement": "Mean Calculated Conc. (n = 3)", "setting": "[1]; CD-1 mouse plasma, incubation of 100 μg/mL F429, incubation time 60 min", "result": 43.2, "unit": "µg/mL"}, {"measurement": "Calculated Conc. (individual sample)", "setting": "[1]; CD-1 mouse plasma, incubation of 100 μg/mL F429, incubation time 60 min (1 hr)", "result": "39.9 µg/mL and 49.4 µg/mL and 40.2 µg/mL"}, {"measurement": "Mean Calculated Conc. (n = 3)", "setting": "[1]; CD-1 mouse plasma, incubation of 100 μg/mL F429, incubation time 120 min", "result": 21.1, "unit": "µg/mL"}, {"measurement": "Calculated Conc. (individual sample)", "setting": "[1]; CD-1 mouse plasma, incubation of 100 μg/mL F429, incubation time 120 min (2 hr)", "result": "21.7 µg/mL and 19.6 µg/mL and 21.9 µg/mL"}, {"measurement": "Mean Calculated Conc. (n = 3)", "setting": "[1]; CD-1 mouse plasma, incubation of 100 μg/mL F429, incubation time 240 min", "result": 6.90, "unit": "µg/mL"}, {"measurement": "Calculated Conc. (individual sample)", "setting": "[1]; CD-1 mouse plasma, incubation of 100 μg/mL F429, incubation time 240 min (4 hr)", "result": "5.41 µg/mL and 8.02 µg/mL and 7.26 µg/mL"}, {"measurement": "Calculated Conc. (individual sample)", "setting": "[1]; CD-1 mouse plasma, incubation of 100 μg/mL F429, incubation time 1440 min (24 hr)", "result": "blq and 2.98 ug/mL"}, {"measurement": "Mean Calculated Conc. (n = 3)", "setting": "[1]; CD-1 mouse plasma, incubation of 100 μg/mL F429, incubation time 1440 min, blq assigned a value of zero", "result": 0.00, "unit": "µg/mL"}, {"measurement": "Ln (logarithm of the remaining percentage)", "setting": "[1]; [11]", "result": 4.61}, {"measurement": "Remaining (%) from time zero", "setting": "[1]; [11]", "result": 100, "unit": "%"}, {"measurement": "Ln (logarithm of the remaining percentage)", "setting": "[1]; [12]", "result": 4.37}, {"measurement": "Remaining (%) from time zero", "setting": "[1]; [12]", "result": 79.1, "unit": "%"}, {"measurement": "Ln (logarithm of the remaining percentage)", "setting": "[1]; [13]", "result": 4.44}, {"measurement": "Remaining (%) from time zero", "setting": "[1]; [13]", "result": 84.5, "unit": "%"}, {"measurement": "Ln (logarithm of the remaining percentage)", "setting": "[1]; [14]", "result": 4.51}, {"measurement": "Remaining (%) from time zero", "setting": "[1]; [14]", "result": 91.0, "unit": "%"}, {"measurement": "Ln (logarithm of the remaining percentage)", "setting": "[1]; [15]", "result": 4.48}, {"measurement": "Remaining (%) from time zero", "setting": "[1]; [15]", "result": 88.1, "unit": "%"}, {"measurement": "Ln (logarithm of the remaining percentage)", "setting": "[1]; [16]", "result": 4.44}, {"measurement": "Remaining (%) from time zero", "setting": "[1]; [16]", "result": 84.9, "unit": "%"}, {"measurement": "Ln (logarithm of the remaining percentage)", "setting": "[1]; [17]", "result": 4.45}, {"measurement": "Remaining (%) from time zero", "setting": "[1]; [17]", "result": 85.4, "unit": "%"}, {"measurement": "Ln (logarithm of the remaining percentage)", "setting": "[1]; [18]", "result": 4.40}, {"measurement": "Remaining (%) from time zero", "setting": "[1]; [18]", "result": 81.1, "unit": "%"}, {"measurement": "Ln (logarithm of the remaining percentage)", "setting": "[1]; [19]", "result": 4.10}, {"measurement": "Remaining (%) from time zero", "setting": "[1]; [19]", "result": 60.4, "unit": "%"}, {"measurement": "Ln (logarithm of the remaining percentage)", "setting": "[1]; [20]", "result": 3.38}, {"measurement": "Remaining (%) from time zero", "setting": "[1]; [20]", "result": 29.5, "unit": "%"}, {"measurement": "Ln (logarithm of the remaining percentage)", "setting": "[1]; [21]", "result": 2.27}, {"measurement": "Remaining (%) from time zero", "setting": "[1]; [21]", "result": 9.65, "unit": "%"}, {"measurement": "Remaining (%) from time zero", "setting": "[1]; CD-1 mouse plasma, incubation time 1440 min", "result": 0.0, "unit": "%"}, {"measurement": "adverse effects", "setting": "[2]", "result": "None of the animals treated with ANT-429 demonstrated any apparent adverse effects"}]}
